1 molecule from patent US20110319427A1, “USE OF 5AHQ AND BORTEZOMIB FOR THE TREATMENT OF HEMATOLOGICAL DISEASES” (priority 2009, published 2011) can be followed below.

For the assay, the system named is THP1/BTZ100.

Like-named read-outs stand apart in the source and are kept apart here.

As to `Nc1ccc(O)c2ncccc12` [5AHQ, 5-amino-8-hydroxyquinoline], the “RF 5AHQ (Resistance Factor)” value (THP1/BTZ100 (+)) was determined as 1.7 and the “RF 5AHQ (Resistance Factor)” value (THP1/BTZ100 (−)) came to 1.7.
